Experimental data as given in ChEMBL document CHEMBL1240295, “Specificity and mechanism of action of some commonly used protein kinase inhibitors” (Biochem J, 2000).

Target: T1, MAP kinase-activated protein kinase 5 (Homo sapiens) (UniProt Q8IW41)
T1 sequence (whole entry): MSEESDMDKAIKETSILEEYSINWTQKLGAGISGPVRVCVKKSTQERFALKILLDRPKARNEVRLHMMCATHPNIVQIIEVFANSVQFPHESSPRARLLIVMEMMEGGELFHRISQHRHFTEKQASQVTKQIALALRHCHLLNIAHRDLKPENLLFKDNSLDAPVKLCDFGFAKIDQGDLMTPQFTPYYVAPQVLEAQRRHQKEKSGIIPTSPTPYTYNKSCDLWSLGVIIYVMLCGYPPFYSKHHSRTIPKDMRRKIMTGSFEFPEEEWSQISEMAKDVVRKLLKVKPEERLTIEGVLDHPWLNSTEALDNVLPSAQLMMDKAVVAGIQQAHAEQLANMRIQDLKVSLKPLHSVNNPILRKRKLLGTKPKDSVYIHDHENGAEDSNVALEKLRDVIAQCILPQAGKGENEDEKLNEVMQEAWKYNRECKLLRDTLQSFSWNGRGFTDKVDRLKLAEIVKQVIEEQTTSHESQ
Experiment: Inhibition of His-tagged human PRAK expressed in Sf9 cells at 50 uM; values are per cent of control

COc1cccc(-c2cc(=O)c3ccccc3o2)c1N
residual activity: 108%
